The values that follow come from BindingDB's records for doi:10.1021/jm900490a (Duquesne University, 2009).

Several values for one entry are separate records, joined by “and”; a condition that tells them apart may be missing. Equal values may be shown once.

This test has as its target T1, Bifunctional dihydrofolate reductase-thymidylate synthase (Toxoplasma gondii, UniProt Q07422).
T1 sequence (Q07422 whole entry): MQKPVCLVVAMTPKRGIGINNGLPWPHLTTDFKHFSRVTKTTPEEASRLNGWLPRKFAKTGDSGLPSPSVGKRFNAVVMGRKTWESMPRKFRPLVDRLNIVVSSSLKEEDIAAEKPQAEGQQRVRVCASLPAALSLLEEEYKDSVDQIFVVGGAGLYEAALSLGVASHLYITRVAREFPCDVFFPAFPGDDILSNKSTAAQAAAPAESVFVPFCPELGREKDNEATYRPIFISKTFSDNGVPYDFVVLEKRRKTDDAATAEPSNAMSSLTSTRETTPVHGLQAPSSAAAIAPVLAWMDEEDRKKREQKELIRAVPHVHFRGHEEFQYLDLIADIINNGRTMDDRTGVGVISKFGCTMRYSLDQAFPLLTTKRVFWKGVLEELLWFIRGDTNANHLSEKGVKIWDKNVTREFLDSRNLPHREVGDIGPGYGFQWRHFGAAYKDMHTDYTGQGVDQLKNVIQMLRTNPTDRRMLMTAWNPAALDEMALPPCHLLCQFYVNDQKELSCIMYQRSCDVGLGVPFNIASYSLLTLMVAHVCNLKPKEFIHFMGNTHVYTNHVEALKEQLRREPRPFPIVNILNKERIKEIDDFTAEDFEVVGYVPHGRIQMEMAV

As to `Cc1sc2nc(N)[nH]c(=O)c2c1Sc1ccc(C(=O)N[C@@H](CCC(=O)O)C(=O)O)cc1` [thieno[2,3-d]pyrimidine deriv., 1], the IC50 – broadly, the concentration that inhibits the measured activity by half – is 36 nM and 8 nM.
